The values below are quoted from earlier work in article PMC4208696 (Biophysical chemistry, 2014).

The structures appear in SMILES notation.

For this series, the target named is full-length CaM. The conditions noted are these: read-out: Kd (ITC, apo), ref [46]; cited from earlier work.

`CSCC[C@H](NC(=O)[C@H](CCCNC(=N)N)NC(=O)[C@H](Cc1ccccc1)NC(=O)[C@H](CS)NC(=O)[C@H](C)NC(=O)[C@@H](NC(=O)[C@@H](NC(=O)[C@H](C)NC(=O)[C@H](CCCNC(=N)N)NC(=O)[C@H](CCCNC(=N)N)NC(=O)[C@H](CCCNC(=N)N)NC(=O)[C@H](CCC(N)=O)NC(=O)[C@H](CCCCN)NC(=O)[C@H](CO)NC(=O)[C@H](CC(C)C)NC(=O)[C@H](CC(C)C)NC(=O)[C@H](CCCCN)NC(=O)[C@H](Cc1c[nH]cn1)NC(=O)[C@H](Cc1c[nH]c2ccccc12)NC(=O)[C@@H](NC(=O)[C@H](C)NC(=O)[C@H](CCCCN)NC(=O)[C@H](CCCCN)NC(=O)[C@H](CO)NC(=O)[C@H](CCCCN)NC(C)=O)C(C)C)C(C)C)C(C)C)C(=O)N[C@H](C(=O)N1CCC[C@H]1C(=O)N[C@@H](CC(C)C)C(=O)N[C@@H](Cc1ccc(O)cc1)C(=O)N[C@@H](CC(N)=O)C(N)=O)[C@@H](C)O` [hRyR1(3614–3643)p]: the Kd was 46.5 µM.

A word on the Kd: it is the free concentration of one partner at which half of the binding sites on the other are occupied at equilibrium, for simple one-to-one binding.
